B1: JAK2 activation loop phosphopeptide (peptide)
chain: VLPQDKEYYKVKEPGE
modifications: doubly-phosphorylated (phosphotyrosines)
B2: JAK3 activation loop phosphopeptide (peptide)
chain: LLPLDKDYYVVREPGQ
modifications: doubly-phosphorylated (phosphotyrosines)
B3: TYK2 activation loop phosphopeptide (peptide)
chain: VPEGHEYYRVREDGD
modifications: doubly-phosphorylated (phosphotyrosines)

Amino acid sequences for entries named in this document (tags omitted). Residues count along the entry.
UniProt O15524, 53-211, chain 1 of 3: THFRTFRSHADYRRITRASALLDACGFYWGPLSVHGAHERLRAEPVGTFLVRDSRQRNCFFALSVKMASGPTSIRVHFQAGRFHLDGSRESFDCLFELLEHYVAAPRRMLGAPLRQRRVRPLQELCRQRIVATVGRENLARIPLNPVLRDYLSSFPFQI

What follows are binders tested against T1, human SOCS1 (residues 53-211) in complex with Elongins B and C (human, UniProt O15524 53-211; Q15370 1-118; Q15369 17-112) (assay: ITC; 10-40 μM SOCS1/ElonginBC in the cell, 80-400 μM phosphopeptide injected; 25 °C; 20 mM Tris-HCl pH 7.5, 150 mM NaCl, 2 mM β-mercaptoethanol). Conditions: both partners purified.
T1 construct: SOCS1, human, residues 53-211; phenylphosphate removed by buffer exchange before assays; also called SOCS1/BC; SOCS1/ElonginBC; source: E. coli BL21(DE3), the three chains co-expressed, purified (GSH-agarose, TEV cleavage, Superdex 200); not shown: GST, N-terminal, cleaved; copies: + +

Kd [nM] | Binder
< 1000 | B1
< 1000 | B2
< 1000 | B3
